Data: patent KR20220006286A, “전립선암 진단 및 치료를 위한 전립선특이 막 항원 표적 화합물 및 이를 포함하는 전립선암 진단 및 치료용 조성물” (priority 2020, dated 2022)

Test system: PC-3 and 22RV1 tumors (PC-3 및 22RV1 종양)
Conditions: mouse, in vivo, iv

Q: Which “tumor uptake on 18F-FDG PET/CT” value does the source give for `OC[C@H]1OC(O)[C@H]([18F])[C@@H](O)[C@@H]1O` (stereo partly shown) [18F-FDG] here?
A: Its value is “양쪽 종양 모두에서 18F-FDG 흡수를 확인하였다; also recorded: 양쪽 종양 모두에서 축적됨을 확인하였다”.

“Also recorded” adds a separate entry of the source.
